Measurements: article PMC9673142, “1,3-Diarylpyrazolyl-acylsulfonamides Target HadAB/BC Complex in Mycobacterium tuberculosis” (ACS Infectious Diseases, 2022)
In brackets after ≈: the same amount, converted by molar mass.

Test system: Mtb
Experiment: microbe, parasite or virus in culture
Conditions: Mycobacterium tuberculosis, read-out: Mtb MBC (Middlebrook 7H9/glucose/ADC/Tx)

SMILES	MBC [µM]
CS(=O)(=O)NC(=O)CCc1cn(-c2ccc(Br)cc2)nc1-c1ccncc1 [Compound 1]	7.6 (≈ 3.41 µg/mL)
CS(=O)(=O)NC(=O)CCc1cn(-c2ccc(Cl)cc2)nc1-c1ccc(Cl)cc1 [Compound 2]	10 (≈ 4.38 µg/mL)
